Measurements from patent publication US20090186832A1 (priority 2008, published 2009).
Some compounds may have been tested in ways that are not shown here.

Settings: plasma buprenorphine; 0.5 mg buprenorphine free base/kg; group2 dogs

Substance: Buprenorphine leucine carbamate
- AUC (mean ngh/mL ± SD): 13.1 ± 3.5 ngh/mL
- Cmax (mean ng/mL ± SD): 1.68 ± 0.56 ng/mL
